Here are results for 2 molecules from US10670605B2, “Cysteine reactive probes and uses thereof” (The Scripps Research Institute, priority 2015, dated 2020).

Chains of the proteins cited; added tags and fusions are not shown. Residues count along the entry.
UniProt O75874, 2-414 R132H: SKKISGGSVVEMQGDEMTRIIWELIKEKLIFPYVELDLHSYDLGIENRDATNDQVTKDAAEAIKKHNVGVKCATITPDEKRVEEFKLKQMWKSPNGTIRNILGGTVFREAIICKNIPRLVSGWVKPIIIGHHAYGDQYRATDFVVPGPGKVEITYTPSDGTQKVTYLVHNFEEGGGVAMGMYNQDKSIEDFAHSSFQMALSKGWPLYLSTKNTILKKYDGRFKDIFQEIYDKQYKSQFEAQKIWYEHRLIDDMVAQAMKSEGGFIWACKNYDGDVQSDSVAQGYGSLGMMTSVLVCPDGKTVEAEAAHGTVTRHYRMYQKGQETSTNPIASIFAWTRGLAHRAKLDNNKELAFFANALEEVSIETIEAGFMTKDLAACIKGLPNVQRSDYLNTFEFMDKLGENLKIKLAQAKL
UniProt O75874, whole entry R132H: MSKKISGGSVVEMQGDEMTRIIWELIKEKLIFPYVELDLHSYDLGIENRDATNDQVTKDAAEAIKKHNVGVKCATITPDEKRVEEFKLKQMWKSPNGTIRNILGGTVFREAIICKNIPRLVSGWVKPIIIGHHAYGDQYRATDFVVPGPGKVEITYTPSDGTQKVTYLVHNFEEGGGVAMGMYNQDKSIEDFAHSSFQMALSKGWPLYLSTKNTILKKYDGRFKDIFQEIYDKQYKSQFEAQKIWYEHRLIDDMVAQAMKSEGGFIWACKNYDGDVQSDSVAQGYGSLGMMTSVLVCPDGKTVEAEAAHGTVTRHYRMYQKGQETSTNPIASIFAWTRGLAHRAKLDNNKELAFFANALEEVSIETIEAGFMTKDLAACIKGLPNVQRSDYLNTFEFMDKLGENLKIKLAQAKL
UniProt O75874, whole entry C269S: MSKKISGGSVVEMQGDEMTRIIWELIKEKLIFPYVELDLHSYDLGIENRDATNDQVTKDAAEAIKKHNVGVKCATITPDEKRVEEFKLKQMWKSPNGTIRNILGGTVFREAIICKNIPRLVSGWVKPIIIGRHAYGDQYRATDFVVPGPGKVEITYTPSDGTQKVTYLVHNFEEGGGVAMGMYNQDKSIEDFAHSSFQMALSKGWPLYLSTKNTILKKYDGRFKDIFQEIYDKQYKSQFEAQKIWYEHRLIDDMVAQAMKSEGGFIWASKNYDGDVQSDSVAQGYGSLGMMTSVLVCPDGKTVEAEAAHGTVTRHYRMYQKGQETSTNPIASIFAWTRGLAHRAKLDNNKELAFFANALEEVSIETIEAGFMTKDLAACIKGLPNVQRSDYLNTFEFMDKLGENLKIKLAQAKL

The target in one test is IDH1 C269 (Homo sapiens, UniProt O75874, R132H). Briefly: Competitive isoTOP-ABPP in situ, R132H-IDH1-expressing MUM2C cells. The conditions noted are these: 50 μM, 2 h.
For test [1], the target named is R132H-IDH1 in MUM2C cells (Homo sapiens, UniProt O75874, R132H). Particulars: 50 μM, 2 h in situ, assayed ex situ.
The target of a further test is T1, IDH1 (Homo sapiens, UniProt O75874, C269S).
T1 construct: Full length cDNAs encoding for IDH1 (Open Biosystems, Clone ID: 3880331) and IMPDH2; His6 (C); made in house; host or cells: E. coli BL21(DE3)
Briefly: IDH1 NADP assay. In kind it is biochemical. As to the method:
To 25 μL of this mixture was added 1 μL of the indicated compound (25× stock solution in DMSO) and the lysates were incubated for 1 h at room temperature in clear 96 well plates (Corning® Costar®). […] Absorbance was measured for 45 minutes and the relative activities were calculated from the change in absorbance for the linear portion of the curve.

Consider `COc1ccc2c(c1)CCCN2C(=O)CCl` [compound 2], for which the “IA-alkyne labeling of C269 of IDH1 in situ” value on IDH1 C269 is on record as “but not”. Also, the “2-HG production by R132H cell lysates” value in test [1] is reported as “slight decrease”.
Take `O=C(CCl)N1CCC(C(O)(c2ccccc2)c2ccccc2)CC1` [compound 20]: the “IA-alkyne labeling of C269 of IDH1 in situ” value on IDH1 C269 is “inhibited”. Moreover, the “catalytic activity of C269S-IDH1 mutant” value at IDH1 is “did not inhibit”.
